# Patent US20080051457A1, “Optically Active Phthalamide Derivative, Agricultural or Horticultural Insecticide, and Method of Using the Same” (priority 2004, published 2008)
# Test: logP (pH2.3), physical properties of Tables 1 to 3
# Type: physicochemical
# Settings: Table 1
# Source text: Representative compounds as optically active phthalamide compounds represented by the formula (I) of the present invention, which can be produced in the same manner as in examples, are shown in Tables 1 to 3. However, the present invention is not limited to these compounds. In the tables, the term “physical properties” means a melting point or logp. The symbol “Me” represents a methyl group, “Et” represents an ethyl group, “Pr” represents a propyl group, “-n” represents normal, and “-i” represents iso.
row,Physical properties: logP,SMILES
1,3.28,CCS(=O)(=O)C[C@H](C)NC(=O)c1c(I)cccc1C(=O)Nc1ccc(C(F)(F)C(F)(F)F)c(Cl)c1C [Compound 1-113]
2,3.10,Cc1c(NC(=O)c2cccc(I)c2C(=O)N[C@@H](C)CS(C)(=O)=O)ccc(C(F)(F)C(F)(F)F)c1Cl [Compound 1-146]
